# According to PubChem BioAssay AID624168 (Sanford-Burnham Center for Chemical Genomics, 2012):
# The entries are a selection whose mix differs from that of the whole data set. Some salts or complexes appear as unconnected parts, following the source record. The source made the active and inactive calls.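 How the source made its calls: active means activation of at least 8% versus controls, or a plate z-score of at least 8; inactive means the rest.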
# Experiment: activators of alpha-DG glycosylation, primary screen, uHTS, Pro5-aDG cells, AlphaScreen (AID 624168);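 further: Pro5 are CHO cells carrying HIG-tagged alpha-DG that lacks glycosylation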
# Details: alpha-DG glycosylation AlphaScreen (IIH6), at 10 µM, hits give high values, 0% Pro5, 100% B10-LARGE cell signal
row,Structure (SMILES),activation
1,CP(=O)(OC12CC3CC(CC(C3)C1)C2)OC12CC3CC(CC(C3)C1)C2,inactive: 0.2%
2,CCOC(=O)c1ccc(NP(C)(=O)Oc2ccc(Cl)cc2)cc1 (stereo not drawn),inactive: 0%
3,CCCCCCCCCCCCCCCC1C[N+](C)(C)CCOP(C)(=O)O1 (stereo not drawn),inactive: 0.4%
4,CP(=O)(Nc1ccc(Cl)cc1Cl)Oc1ccccc1 (stereo not drawn),inactive: 1%
5,CP(=O)(OCCOc1ccccc1)OCCOc1ccccc1,inactive: -0.1%
6,COc1ccc(OP(C)(=O)Nc2ccccc2Br)cc1 (stereo not drawn),inactive: 0.1%
7,COc1ccccc1OP(C)(=O)Nc1ccc(C)c(C)c1 (stereo not drawn),inactive: 0.1%
8,Cc1cc(C)cc(OP(C)(=O)Nc2cccc(C(F)(F)F)c2)c1 (stereo not drawn),inactive: 1.3%
9,O=C1C(O)=C([N+](=O)[O-])C(=O)C(O)=C1[N+](=O)[O-],inactive: 0.1%
10,CCc1ccc(OP(C)(=O)O)cc1,inactive: 0.4%
11,COc1ccccc1OP(C)(=O)Nc1ccc(C)cc1C (stereo not drawn),inactive: -0.1%
12,CP(=O)(Nc1ccccn1)Oc1ccccc1 (stereo not drawn),inactive: -0.2%
13,Cc1c(NP(C)(=O)Oc2ccc(C(C)C)cc2)c(=O)n(-c2ccccc2)n1C (stereo not drawn),inactive: -0.2%
14,O=[N+]([O-])c1cc([N+](=O)[O-])c(Nc2ccccn2)c([N+](=O)[O-])c1,active: 12.4%
15,CN(C)CCOC(=O)C(O)(c1ccccc1)C1CCCC1 (stereo not drawn),inactive: 0%
16,COc1ccc(OP(C)(=O)Nc2ccccn2)cc1 (stereo not drawn),inactive: -0.1%
17,COc1ccccc1OP(C)(=O)Nc1ccc(Br)cc1 (stereo not drawn),inactive: -0.1%
18,COc1ccc2c(c1O)-c1c(O)c(OC)cc3c1[C@H](C2)[N+](C)(C)CC3.O=[N+]([O-])c1cc([N+](=O)[O-])c([O-])c([N+](=O)[O-])c1[O-],inactive: 0.2%
19,O=C(OCCN1CCN(CCOCc2ccccc2)CC1)C(O)(c1ccccc1)c1ccccc1,inactive: 0.2%
20,O=C(OC1CN2CCC1CC2)c1ccc([N+](=O)[O-])cc1 (stereo not drawn),inactive: 0.1%
21,CC(C)c1ccc(OP(C)(=O)Nc2ccc(SC(F)(F)F)cc2)cc1 (stereo not drawn),inactive: 0.5%
22,CP(=O)(Nc1ccccc1F)Oc1ccccc1 (stereo not drawn),inactive: -0.1%

row,Structure (SMILES),activation
1,O=[N+]([O-])c1cc([N+](=O)[O-])c(Nc2ccc(Cl)cc2)c([N+](=O)[O-])c1,inactive: -0.7%
2,CCCCCOc1ccc(NP(C)(=O)Oc2ccc(Cl)cc2Cl)cc1 (stereo not drawn),inactive: 0.2%
3,O=[N+]([O-])c1cc([N+](=O)[O-])c(OC2CCCCC2O)c([N+](=O)[O-])c1 (stereo not drawn),inactive: 0.1%
4,CP(=O)(Nc1ccccc1)Oc1ccc(F)cc1 (stereo not drawn),inactive: 0%
5,CCN(CC)CCCOC(=O)C(O)(c1ccccc1)C1CCCCC1 (stereo not drawn),inactive: 0.1%
6,Cc1c([N+](=O)[O-])cc([N+](=O)[O-])c(Br)c1[N+](=O)[O-],inactive: 0.5%
7,COc1ccc(OP(C)(=O)Nc2ccc(SC(F)(F)F)cc2)cc1 (stereo not drawn),inactive: 0%
8,CCOC(=O)c1ccc(NP(C)(=O)Oc2ccc(F)cc2)cc1 (stereo not drawn),inactive: 0.1%
9,CCN(CC)CCCNc1ccccc1[N+](=O)[O-].O=[N+]([O-])c1cc([N+](=O)[O-])c(O)c([N+](=O)[O-])c1,inactive: -0.2%
10,Cc1c(C(c2ccc3c(c2)OCO3)c2c(C)n(C)n(-c3ccccc3)c2=O)c(=O)n(-c2ccccc2)n1C.O=[N+]([O-])c1cc([N+](=O)[O-])c(O)c([N+](=O)[O-])c1,inactive: -0.1%
11,O=[N+]([O-])c1cc([N+](=O)[O-])c(NCC2CCS(=O)(=O)C2)c([N+](=O)[O-])c1 (stereo not drawn),inactive: 2%
12,Cc1cc(-c2cccc3ccccc23)c(C)cn1.O=[N+]([O-])c1cc([N+](=O)[O-])c(O)c([N+](=O)[O-])c1,inactive: 0.1%
13,O=[N+]([O-])c1ccc(OP2(=O)COCCO2)cc1 (stereo not drawn),inactive: -0.2%
14,COc1ccc(NP(C)(=O)Oc2ccccc2OC)cc1 (stereo not drawn),inactive: -0.1%
15,CN(C)CCOC(=O)C(O)(c1ccccc1)C1CCCCC1 (stereo not drawn),inactive: 0%
16,COc1ccc(OP(C)(=O)Nc2cccc(Br)c2)cc1 (stereo not drawn),inactive: 0.3%
17,O=[N+]([O-])c1cc([N+](=O)[O-])c(C(F)(F)F)c([N+](=O)[O-])c1O,inactive: 0%
18,Cc1ccccc1NP(C)(=O)Nc1ccccc1C,inactive: -0.2%
19,CP(=O)(Nc1ccc2c(c1)OCCO2)Oc1ccccc1 (stereo not drawn),inactive: 0.1%
20,CCOP(C)(=S)SCC(=O)NC(C)(CC)C(=O)O (stereo not drawn),inactive: -0.2%
21,CP(=O)(Nc1ccc(SC(F)(F)F)cc1)Oc1ccc(F)cc1 (stereo not drawn),inactive: 0.1%
